In patent US9757356B2 (CHONNAM NATIONAL UNIVERSITY HOSPITAL, priority 2015, dated 2017):

System: cardiac fibroblasts (cFBs)
Experiment: BrdU cell proliferation assay, cardiac fibroblasts in cardiomyocyte/cardiac fibroblast co-culture
Assay type: cell-based, rat
Settings: BIO 5 μM and 10 μM vs LiCl, same manner as Example 3, FIG. 8
Protocol: Hearts of two-day-old rats were removed and washed with physiological saline. Thereafter, left cardiac muscles were separated from the hearts in a sterilization cabinet, and microtomed into segments. These myocardial tissues were added to a collagenase enzyme solution, reacted at 37° C. while stirring, and then centrifuged to collect only the supernatant which were then kept in a cell culture flask. After an hour, cardiomyocytes which floated when the supernatant was transferred to a new culture flask were separated from cardiac fibroblasts attached to the bottom of the cell culture flask. At this point, both the cardiomyocytes and the cardiac fibroblasts were cultured in a Dulbecco's modified Eagle's medium (DMEM) supplemented with 10% fetal bovine serum (FBS) and then used for experiments.
After 2 days and 5 days, the proliferation of cells was quantified. […]
Then, cells which were not stained with cardiac troponin I but stained with DAPI were regarded as cardiac fibroblasts and then counted.
An inhibitory effect on the proliferation of the cardiac fibroblasts was comparatively evaluated in the same manner as in Example 3 in the BIO-treated group and the LiCl-treated group.

In the case of `O=C1Nc2cc(Br)ccc2/C1=C1/Nc2ccccc2/C1=N\O` [BIO, (2′Z,3′E)-6-bromoindirubin-3′-oxime], the “inhibitory effect on the proliferation of the cardiac fibroblasts” value is reported as “observed”.
